Measured values published in PMC2263054, “Functional evolution of the vitamin D and pregnane X receptors” (BMC Evolutionary Biology, 2007).

Key:
Settings in all cases: screening for activators, at least three concentrations of each drug
Zebrafish VDR = target: T1, Zebrafish VDR (Danio rerio, UniProt Q9PTN2); assay: luciferase reporter transactivation assay in HepG2-NTCP cells, GAL4/zfVDR LBD chimera with tk-UAS-Luc; type: cell-based
T1 sequence (Q9PTN2 121-453): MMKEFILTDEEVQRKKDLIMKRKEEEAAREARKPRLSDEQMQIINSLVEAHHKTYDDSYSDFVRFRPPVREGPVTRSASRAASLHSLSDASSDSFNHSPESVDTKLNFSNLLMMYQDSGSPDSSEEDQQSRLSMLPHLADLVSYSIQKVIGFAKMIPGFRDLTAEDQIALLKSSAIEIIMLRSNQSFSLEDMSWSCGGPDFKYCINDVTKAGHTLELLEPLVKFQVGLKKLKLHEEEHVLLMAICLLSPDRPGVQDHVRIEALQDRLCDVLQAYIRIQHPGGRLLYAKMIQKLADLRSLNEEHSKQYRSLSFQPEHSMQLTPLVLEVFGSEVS

Xenopus laevis VDR = target: T2, Xenopus laevis VDR (Xenopus laevis, UniProt O13124); assay: luciferase reporter transactivation assay in HepG2-NTCP cells, GAL4/xlVDR LBD chimera with tk-UAS-Luc; type: cell-based
T2 sequence (O13124 90-422): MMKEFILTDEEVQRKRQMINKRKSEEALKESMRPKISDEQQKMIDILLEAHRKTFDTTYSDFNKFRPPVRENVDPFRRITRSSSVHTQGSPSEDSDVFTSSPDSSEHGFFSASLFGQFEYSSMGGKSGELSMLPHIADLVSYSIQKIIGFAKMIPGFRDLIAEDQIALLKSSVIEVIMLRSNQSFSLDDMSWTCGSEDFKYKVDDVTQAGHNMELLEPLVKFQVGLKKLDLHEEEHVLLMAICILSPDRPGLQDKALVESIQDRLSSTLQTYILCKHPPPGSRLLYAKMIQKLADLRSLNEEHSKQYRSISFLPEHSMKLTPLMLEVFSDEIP

Sea lamprey VDR = target: T3, Sea lamprey VDR (Petromyzon marinus, UniProt Q7ZZY9)
T3 sequence (Q7ZZY9 92-406): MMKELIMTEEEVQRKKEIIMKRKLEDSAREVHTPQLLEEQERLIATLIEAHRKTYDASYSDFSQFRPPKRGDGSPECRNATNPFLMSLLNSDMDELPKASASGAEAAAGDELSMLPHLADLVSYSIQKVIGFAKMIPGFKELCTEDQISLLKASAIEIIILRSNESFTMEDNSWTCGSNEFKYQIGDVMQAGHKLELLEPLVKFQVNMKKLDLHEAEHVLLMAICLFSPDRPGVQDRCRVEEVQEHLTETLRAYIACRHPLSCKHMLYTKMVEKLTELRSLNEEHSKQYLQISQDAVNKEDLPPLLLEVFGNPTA

Structure (SMILES)	Effect on zebrafish VDR (Zebrafish VDR)	Effect on Xenopus laevis VDR (Xenopus laevis VDR)	Effect on sea lamprey VDR (Sea lamprey VDR)
CCCCC[C@H](O)/C=C/[C@@H]1[C@H]2C/C(=C/CCCC(=O)O)C[C@H]2C[C@H]1O [Carbacyclin]	No effect	No effect	No effect
CC#C[C@]1(O)CC[C@H]2[C@@H]3CCC4=CC(=O)CCC4=C3[C@@H](c3ccc(N(C)C)cc3)C[C@@]21C [Mifepristone]	No effect	–	–
